Holding throughout (format): cell-based
One assay deals with BTK (Homo sapiens, UniProt Q06187). In words: NanoBRET live-cell target engagement of BTK in HEK293 cells.
The test system of the next assay is TMD8 cells. Nature of the assay: Cell viability, CellTiter-Glo 2.0, TMD8 cells. (Cellular ATP, detected with luciferase, serves as a proxy for viable cell number.)
The subject of the next assay is Mino cells. Nature of the assay: Cell viability, CellTiter-Glo 2.0, Mino cells.

Amino acid sequences for entries named in this document (tags omitted). A change or cut given only in a name is not applied to a line headed by its entry.
UniProt Q06187: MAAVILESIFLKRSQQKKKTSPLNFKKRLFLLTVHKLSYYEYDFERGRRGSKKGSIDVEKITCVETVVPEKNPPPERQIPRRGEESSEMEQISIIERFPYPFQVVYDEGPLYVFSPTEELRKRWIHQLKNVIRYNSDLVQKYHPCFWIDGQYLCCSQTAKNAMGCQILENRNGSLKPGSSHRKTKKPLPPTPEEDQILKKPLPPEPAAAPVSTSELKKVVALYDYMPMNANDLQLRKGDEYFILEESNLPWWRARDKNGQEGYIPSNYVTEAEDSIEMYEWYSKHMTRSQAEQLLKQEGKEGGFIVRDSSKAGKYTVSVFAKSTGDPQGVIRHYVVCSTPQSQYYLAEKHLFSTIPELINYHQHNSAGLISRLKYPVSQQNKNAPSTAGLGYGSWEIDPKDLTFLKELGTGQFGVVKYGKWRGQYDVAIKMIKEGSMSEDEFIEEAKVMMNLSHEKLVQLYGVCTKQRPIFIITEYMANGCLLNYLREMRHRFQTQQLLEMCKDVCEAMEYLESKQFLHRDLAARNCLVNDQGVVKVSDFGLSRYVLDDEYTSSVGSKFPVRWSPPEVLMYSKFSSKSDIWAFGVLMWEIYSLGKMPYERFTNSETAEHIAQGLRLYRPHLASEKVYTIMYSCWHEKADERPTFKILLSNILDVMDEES

Structures are written as SMILES.

Regarding `C[C@H]1CN(C(=O)CNc2cccc3c2C(=O)N(C2CCC(=O)NC2=O)C3=O)CCN1c1ccc(Nc2cc(-c3ccnc(N4CCn5c(cc6c5CC(C)(C)C6)C4=O)c3CO)cn(C)c2=O)nc1` (stereo partly drawn) [PTD10, 4-((2-((S)-4-(6-((2’-(7,7-dimethyl-1-oxo-1,3,4,6,7,8-hexahydro-2H-cyclopenta[4,5]pyrrolo[1,2-a]pyrazin-2-yl)-3’-(hydroxymethyl)-1-methyl-6-oxo-1,6-dihydro-[3,4’-bipyridin]-5-yl)amino)pyridin-3-yl)-3-methylpiperazin-1-yl)-2-oxoethyl)amino)-2-(2,6-dioxopiperidin-3-yl)isoindoline-1,3-dione], at BTK, the “Fold less potent than GDC-0853 at engaging BTK” value is given as 8 fold. Further, the “Fold more potent than pomalidomide, cell growth” value in the assay on TMD8 cells is listed as “over 100 fold”. Further, in the assay on Mino cells, the “Fold more potent than GDC-0853, cell growth” value was found to be 3 fold.
